Reference: patent US11472877 (Alector, dated 2022)

Amino acid sequences for entries named in this document (tags omitted). Chains listed by the source or under a name are the forms on record and can include a tag or linker. Residues count along the entry.
UniProt Q9NP99, 21-205 limits assumed, form in doubt: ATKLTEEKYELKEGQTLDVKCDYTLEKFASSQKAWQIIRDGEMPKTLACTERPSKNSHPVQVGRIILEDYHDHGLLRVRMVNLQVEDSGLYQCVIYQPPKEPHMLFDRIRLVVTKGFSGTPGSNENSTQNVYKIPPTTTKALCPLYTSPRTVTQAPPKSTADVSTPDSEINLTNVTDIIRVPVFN
UniProt Q9NP99, 21-234: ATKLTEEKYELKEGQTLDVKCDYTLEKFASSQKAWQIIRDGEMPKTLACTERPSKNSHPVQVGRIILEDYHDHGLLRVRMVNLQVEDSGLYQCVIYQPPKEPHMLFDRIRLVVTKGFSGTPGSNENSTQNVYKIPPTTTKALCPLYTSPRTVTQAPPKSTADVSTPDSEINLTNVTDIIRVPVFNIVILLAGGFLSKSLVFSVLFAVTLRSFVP

Legend:
mouse TREM1 on CHO cells = target: T1, mouse TREM1 on CHO cells (mouse, UniProt Q9JKE2 21-230); assay: FACS, CHO mouse TREM1
T1 construct: also called CHO-mT1
T1 sequence: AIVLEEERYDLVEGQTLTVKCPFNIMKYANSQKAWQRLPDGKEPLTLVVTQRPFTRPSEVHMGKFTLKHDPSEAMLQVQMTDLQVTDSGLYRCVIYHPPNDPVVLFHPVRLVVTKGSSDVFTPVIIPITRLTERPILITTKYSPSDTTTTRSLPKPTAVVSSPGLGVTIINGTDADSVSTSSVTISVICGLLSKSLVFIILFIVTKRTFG

human TREM1 = human TREM1 (human, UniProt Q9NP99 21-205, limits assumed); assay: IgG, monovalent; method and antigen form not stated
human TREM1 on cells [1] = target: T2, human TREM1 on cells (human, UniProt Q9NP99 21-234); assay: FACS, human neutrophils
T2 construct: Some reporter cells carry a human TREM1/CD3 zeta fusion instead; also called CHO-huT1; CHO-hT1

mouse TREM2 on BWZ cells = target: T3, mouse TREM2 on BWZ cells (mouse, UniProt Q99NH8 19-227); assay: FACS, BWZ mouse TREM2
T3 construct: whole, on cells; also called BWZ Mouse TREM2
T3 sequence (looked up): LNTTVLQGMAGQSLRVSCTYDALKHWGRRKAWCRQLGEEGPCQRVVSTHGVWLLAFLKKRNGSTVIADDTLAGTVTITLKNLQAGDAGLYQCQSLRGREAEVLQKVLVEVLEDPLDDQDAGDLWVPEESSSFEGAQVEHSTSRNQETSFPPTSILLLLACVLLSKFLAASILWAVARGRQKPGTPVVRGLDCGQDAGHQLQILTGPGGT

human TREM2 on BWZ cells = target: T4, human TREM2 on BWZ cells (human, UniProt Q9NZC2 19-230); assay: FACS, BWZ human TREM2
T4 construct: whole, on cells; not tied to the cell line; also called BWZ Human TREM2
T4 sequence (looked up): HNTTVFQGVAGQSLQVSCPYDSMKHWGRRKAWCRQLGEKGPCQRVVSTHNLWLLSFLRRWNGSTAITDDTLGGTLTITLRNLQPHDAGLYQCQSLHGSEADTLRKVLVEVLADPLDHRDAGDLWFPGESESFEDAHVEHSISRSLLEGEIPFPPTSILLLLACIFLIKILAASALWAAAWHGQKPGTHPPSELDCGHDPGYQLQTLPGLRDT

human TREM1 on cells [2] = target: T2, human TREM1 on cells; assay: FACS, CHO human TREM1

B1: T1-39 (antibody, IgG1, V domains shown)
VH: EVQLVESGGGLVKPGGSLRLSCAASGFTFSSYSMNWVRQAPGKGLEWVSSISSSSNYIYYADSVKGRFTISRDNAKNSLYLQMNSLRAEDTAVYYCARRGGSSSTGLLYWGQGTLVTVSS
VL: DIQLTQSPSSVSASVGDRVTITCRASQDISSWLAWYQQKPGKAPKLLIYAASSLQSGVPSRFSGSGSGTDFTLTISSLQPEDFATYYCQQSLTHPTFGGGTKVEIK
notes: huIgG1; also called TI-39; ADI-19113
Mouse TREM1 on CHO cells
  FOB Fold Over Background: 54.3 fold
Human TREM1
  Kd: 0.0497 µM
  koff: 0.0111 s⁻¹
  kon: 224000 M⁻¹ s⁻¹
Human TREM1 on cells [1]
  FOB Fold Over Background: 2.4 fold
Mouse TREM2 on BWZ cells
  FOB Fold Over Background: 1.2 fold
Human TREM2 on BWZ cells
  FOB Fold Over Background: 0.8 fold
Human TREM1 on cells [2]
  FOB Fold Over Background: 441 fold

B2: T1-17 (antibody, IgG1, V domains shown)
VH: QVQLQESGPGLVKPSETLSLTCTVSGGSISSYYWSWIRQPPGKGLEWIGSIYYSGSTNYNPSLKSRVTISVDTSKNQFSLKLSSVTAADTAVYYCARGAPGGRHNWFDPWGQGTLVTVSS
VL: DIQMTQSPSSLSASVGDRVTITCQASQDISNYLNWYQQKPGKAPKLLIYDASNLATGVPSRFSGSGSGTDFTFTISSLQPEDIATYYCQQSDIHPRTFGGGTKVEIK
notes: huIgG1; also called TI-17; ADI-19084
Mouse TREM1 on CHO cells
  FOB Fold Over Background: 0.7 fold
Human TREM1 on cells [1]
  FOB Fold Over Background: 1.3 fold
Mouse TREM2 on BWZ cells
  FOB Fold Over Background: 1.2 fold
Human TREM2 on BWZ cells
  FOB Fold Over Background: 0.7 fold
Human TREM1 on cells [2]
  FOB Fold Over Background: 264 fold

B3: T1-18 (antibody, IgG1, V domains shown)
VH: EVQLVESGGGLVQPGRSLRLSCAASGFTFDDYAMHWVRQAPGKGLEWVSGISWNSGDIGYADSVKGRFTISRDNAKNTLYLQMNSLRAEDTALYYCAKGPRMVTHLDVWGQGTMVTVSS
VL: DIQMTQSPSTLSASVGDRVTITCRASQSISSWLAWYQQKPGKAPKLLIYKASSLESGVPSRFSGSGSGTEFTLTISSLQPDDFATYYCQQDSIYPITFGGGTKVEIK
notes: huIgG1; also called TI-18; ADI-19085
Mouse TREM1 on CHO cells
  FOB Fold Over Background: 0.8 fold
Human TREM1 on cells [1]
  FOB Fold Over Background: 2 fold
Mouse TREM2 on BWZ cells
  FOB Fold Over Background: 0.9 fold
Human TREM2 on BWZ cells
  FOB Fold Over Background: 0.5 fold
Human TREM1 on cells [2]
  FOB Fold Over Background: 457 fold

B4: T1-14 (antibody, IgG1, V domains shown)
VH: QVQLVESGGGVVQPGRSLRLSCAASGFTFSSYGMHWVRQAPGKGLEWVAVISYDGSNKYYADSVKGRFTISRDNSKNTLYLQMNSLRAEDTAVYYCARRSSGDYLDVWGQGTMVTVSS
VL: not shown
notes: huIgG1; also called TI-14; ADI-19081
Mouse TREM1 on CHO cells
  FOB Fold Over Background: 0.8 fold
Human TREM1 on cells [1]
  FOB Fold Over Background: 2.3 fold
Mouse TREM2 on BWZ cells
  FOB Fold Over Background: 1.4 fold
Human TREM2 on BWZ cells
  FOB Fold Over Background: 0.7 fold
Human TREM1 on cells [2]
  FOB Fold Over Background: 418 fold

B5: T1-37 (antibody, IgG1, V domains shown)
VH: QVQLVESGGGVVQPGRSLRLSCAASGFTFSSYGMHWVRQAPGKGLEWVALIWYDGSNKYYADSVKGRFTISRDNSKNTLYLQMNSLRAEDTAVYYCAKGDYLDPLFDYWGQGTLVTVSS
VL: EIVMTQSPATLSVSPGERATLSCRASQSVSSNLAWYQQKPGQAPRLLIYGASTRATGIPARFSGSGSGTEFTLTISSLQSEDFAVYYCQQYAYWPLTFGGGTKVEIK
notes: huIgG1; also called TI-37; ADI-19111
Mouse TREM1 on CHO cells
  FOB Fold Over Background: 39.2 fold
Human TREM1
  Kd: 0.0573 µM
  koff: 0.0164 s⁻¹
  kon: 285000 M⁻¹ s⁻¹
Human TREM1 on cells [1]
  FOB Fold Over Background: 2.2 fold
Mouse TREM2 on BWZ cells
  FOB Fold Over Background: 0.9 fold
Human TREM2 on BWZ cells
  FOB Fold Over Background: 0.7 fold
Human TREM1 on cells [2]
  FOB Fold Over Background: 323 fold

B6: T1-80 (antibody, IgG1, V domains shown)
VH: QVQLVESGGGVVQPGRSLRLSCAASGFTFSSYGMHWVRQAPGKGLEWVALIWYDGSNKYYADSVKGRFTISRDNSKNTLYLQMNSLRAEDTAVYYCARELIVGATGGLTYYYGMDVWGQGTTVTVSS
VL: EIVMTQSPATLSVSPGERATLSCRASQSVGSNLAWYQQKPGQAPRLLIYGASTRATGIPARFSGSGSGTEFTLTISSLQSEDFAVYYCQQDHDRPLTFGGGTKVEIK
notes: huIgG1; also called TI-80; ADI-19159
Human TREM1 on cells [1]
  FOB Fold Over Background: 1.7 fold
Human TREM1 on cells [2]
  FOB Fold Over Background: 346 fold

B7: T1-43 (antibody, IgG1, V domains shown)
VH: QVQLVQSGAEVKKPGASVKVSCKASGYTFTSYYMHWVRQAPGQGLEWMGIINPSGGSTSYAQKFQGRVTMTRDTSTSTVYMELSSLRSEDTAVYYCAREAGNYYDIESAFDIWGQGTMVTVSS
VL: not shown
notes: huIgG1; also called TI-43; ADI-19117
Mouse TREM1 on CHO cells
  FOB Fold Over Background: 7.6 fold
Human TREM1
  Kd: 0.0122 µM
  koff: 0.001 s⁻¹
  kon: 82500 M⁻¹ s⁻¹
Human TREM1 on cells [1]
  FOB Fold Over Background: 2.3 fold
Mouse TREM2 on BWZ cells
  FOB Fold Over Background: 1.5 fold
Human TREM2 on BWZ cells
  FOB Fold Over Background: 0.9 fold
Human TREM1 on cells [2]
  FOB Fold Over Background: 456 fold

B8: T1-54 (antibody, IgG1, V domains shown)
VH: QVQLVQSGAEVKKPGSSVKVSCKASGGTFSSYAISWVRQAPGQGLEWMGGIIPIFGTANYAQKFQGRVTITADESTSTAYMELSSLRSEDTAVYYCARHWYALGSFDIWGQGTMVTVSS
VL: EIVMTQSPATLSLSPGERATLSCRASQSVSSYLAWYQQKPGQAPRLLIYDSSNRATGIPARFSGSGSGTDFTLTISSLEPEDFAVYYCQQHDVWPITFGGGTKVEIK
notes: huIgG1; also called TI-54; ADI-19129
Human TREM1 on cells [1]
  FOB Fold Over Background: 3.8 fold
Human TREM1 on cells [2]
  FOB Fold Over Background: 438 fold

B9: T1-38 (antibody, IgG1, V domains shown)
VH: QVQLVESGGGVVQPGRSLRLSCAASGLTFSSYGMHWVRQAPGKGLEWVAVISYDGSNKYYADSVKGRFTISRDNSKNTLYLQMNSLRAEDTAVYYCARERGTYYYASGWANWGQGTLVTVSS
VL: not shown
notes: huIgG1; also called TI-38; ADI-19112
Mouse TREM1 on CHO cells
  FOB Fold Over Background: 22.9 fold
Human TREM1
  Kd: 0.0571 µM
  koff: 0.00556 s⁻¹
  kon: 97300 M⁻¹ s⁻¹
Human TREM1 on cells [1]
  FOB Fold Over Background: 2.1 fold
Mouse TREM2 on BWZ cells
  FOB Fold Over Background: 0.8 fold
Human TREM2 on BWZ cells
  FOB Fold Over Background: 0.5 fold
Human TREM1 on cells [2]
  FOB Fold Over Background: 388 fold

B10: T1-11 (antibody, IgG1, V domains shown)
VH: QLQLQESGPGLVKPSETLSLTCTVSGGSISSSSYYWGWIRQPPGKGLEWIGSIYYSGSTYYNPSLKSRVTISVDTSKNQFSLKLSSVTAADTAVYYCARSGEYGFDLWGRGTLVTVSS
VL: not shown
notes: huIgG1; also called TI-11; ADI-19078
Mouse TREM1 on CHO cells
  FOB Fold Over Background: 0.7 fold
Human TREM1 on cells [1]
  FOB Fold Over Background: 2.3 fold
Mouse TREM2 on BWZ cells
  FOB Fold Over Background: 1.1 fold
Human TREM2 on BWZ cells
  FOB Fold Over Background: 0.7 fold
Human TREM1 on cells [2]
  FOB Fold Over Background: 414 fold

B11: T1-9 (antibody, IgG1, V domains shown)
VH: QVQLVQSGAEVKKPGASVKVSCKASGYTFTSYYMHWVRQAPGQGLEWMGIINPSGGSTSYAQKFQGRVTMTRDTSTSTVYMELSSLRSEDTAVYYCAREAGYDISSAFDIWGQGTMVTVSS
VL: not shown
notes: huIgG1; also called TI-9; ADI-19076
Mouse TREM1 on CHO cells
  FOB Fold Over Background: 0.7 fold
Human TREM1
  Kd: 0.11 µM
  koff: 0.00856 s⁻¹
  kon: 78100 M⁻¹ s⁻¹
Human TREM1 on cells [1]
  FOB Fold Over Background: 1.7 fold
Mouse TREM2 on BWZ cells
  FOB Fold Over Background: 1.5 fold
Human TREM2 on BWZ cells
  FOB Fold Over Background: 0.7 fold
Human TREM1 on cells [2]
  FOB Fold Over Background: 312 fold

B12: T1-53 (antibody, IgG1, V domains shown)
VH: QVQLVQSGAEVKKPGASVKVSCKASGYTFTSYYIHWVRQAPGQGLEWMGIINPSGGSTSYAQKFQGRVTMTRDTSTSTVYMELSSLRSEDTAVYYCARESGYHVSTAFDIWGQGTMVTVSS
VL: not shown
notes: huIgG1; also called TI-53; ADI-19128
Human TREM1
  Kd: 0.0191 µM
  koff: 0.00156 s⁻¹
  kon: 81600 M⁻¹ s⁻¹
Human TREM1 on cells [1]
  FOB Fold Over Background: 2.3 fold
Mouse TREM2 on BWZ cells
  FOB Fold Over Background: 1.2 fold
Human TREM2 on BWZ cells
  FOB Fold Over Background: 0.9 fold
Human TREM1 on cells [2]
  FOB Fold Over Background: 459 fold

B13: T1-8 (antibody, IgG1, V domains shown)
VH: QVQLVQSGAEVKKPGASVKVSCKASGYTFTSYYMHWVRQAPGQGLEWMGIINPSGGSTSYAQKFQGRVTMTRDTSTSTVYMELSSLRSEDTAVYYCAREVSMTAASLDVWGQGTMVTVSS
VL: not shown
notes: huIgG1; also called TI-8; ADI-19074
Mouse TREM1 on CHO cells
  FOB Fold Over Background: 0.7 fold
Human TREM1
  Kd: 0.177 µM
  koff: 0.0142 s⁻¹
  kon: 80400 M⁻¹ s⁻¹
Human TREM1 on cells [1]
  FOB Fold Over Background: 1.6 fold
Mouse TREM2 on BWZ cells
  FOB Fold Over Background: 1.2 fold
Human TREM2 on BWZ cells
  FOB Fold Over Background: 1.9 fold
Human TREM1 on cells [2]
  FOB Fold Over Background: 455 fold

B14: T1-10 (antibody, IgG1, V domains shown)
VH: QVQLVQSGAEVKKPGASVKVSCKASGYTFTSYYMHWVRQAPGQGLEWMGIINPSGGSTSYAQKFQGRVTMTRDTSTSTVYMELSSLRSEDTAVYYCAREGSGSWETLDVWGQGTMVTVSS
VL: not shown
notes: huIgG1; also called TI-10; ADI-19077
Mouse TREM1 on CHO cells
  FOB Fold Over Background: 0.8 fold
Human TREM1
  Kd: 0.00845 µM
  koff: 0.000663 s⁻¹
  kon: 78500 M⁻¹ s⁻¹
Human TREM1 on cells [1]
  FOB Fold Over Background: 2.9 fold
Mouse TREM2 on BWZ cells
  FOB Fold Over Background: 1 fold
Human TREM2 on BWZ cells
  FOB Fold Over Background: 0.9 fold
Human TREM1 on cells [2]
  FOB Fold Over Background: 526 fold
